Measurements published in ChEMBL document CHEMBL4680222, “Sensitive fluorogenic substrates for sirtuin deacylase inhibitor discovery” (Eur J Med Chem, 2020).

Amino acid sequences for entries named in this document (tags omitted). A change or cut given only in a name is not applied to a line headed by its entry.
UniProt Q9NXA8: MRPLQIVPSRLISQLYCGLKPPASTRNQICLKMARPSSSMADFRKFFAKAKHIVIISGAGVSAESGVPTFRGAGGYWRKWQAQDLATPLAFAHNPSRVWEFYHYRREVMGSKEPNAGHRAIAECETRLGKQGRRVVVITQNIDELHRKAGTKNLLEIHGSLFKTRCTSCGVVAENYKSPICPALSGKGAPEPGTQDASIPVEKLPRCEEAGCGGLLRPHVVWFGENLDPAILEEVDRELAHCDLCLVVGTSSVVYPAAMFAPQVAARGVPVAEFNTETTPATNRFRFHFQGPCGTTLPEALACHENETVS

Target: NAD-dependent protein deacylase sirtuin-5, mitochondrial (Homo sapiens) (UniProt Q9NXA8)
Conditions: dose 600.0 µM

Ka: 21.6 10^4/M
Structure (SMILES): CC(C)c1ccccc1Cc1cc(C(=O)Nc2ccc(S(=O)(=O)c3ccccc3C(C)(C)C)cc2)c(O)c(O)c1O
